## Binding of CDR-mutated scFvs to a peptide of the spike HR2 region

Target peptide (SARS-CoV-2 spike, HR2 region): PDVDLGDISGINAS

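Phage display of a naive human antibody library on the peptide gave the parent. Variants in AAYL51 differ from the parent at up to three CDR positions; double and triple changes were sampled at random. In AlphaSeq, yeast of one mating type display the scFv and yeast of the other type display the target. Pairs that bind mate more often; barcode pairs of the diploids are counted by sequencing. Scores were corrected for input abundance and mapped to Kd with protein pairs of known affinity run in the same pool. There are three technical replicates.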

Parent scFv Ab-91: VL joined to VH by a (GGGGS)3 linker. Changes lie in the heavy chain CDRs alone.
VL: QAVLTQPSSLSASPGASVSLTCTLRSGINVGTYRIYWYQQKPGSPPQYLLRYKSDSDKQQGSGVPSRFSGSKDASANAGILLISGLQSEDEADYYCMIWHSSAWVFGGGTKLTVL
VH: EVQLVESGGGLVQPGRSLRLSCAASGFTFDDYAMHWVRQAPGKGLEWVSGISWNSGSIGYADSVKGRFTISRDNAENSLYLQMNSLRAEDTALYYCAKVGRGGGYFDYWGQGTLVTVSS

The parent's heavy chain CDRs are GFTFDDYAMH, GISWNSGSIGYADSVK, VGRGGGYFDY; each variant's own CDRs replace them letter for letter.
Scale: log10 of Kd in nM, estimated from mating counts; low values are strong binders.
The mean shown is taken over the replicates in which the pair was detected.
"n.d." means that the variant was in the library but no mating with the target was seen in that replicate; the authors take this as a sign of poor binding, and no number exists.
For reference, the parent read 1.86 as the reference entry and 0.88 as a member of this library.
As a blank, each scFv also met three strains without target: over library AAYL51, 21% of these pairings were detected, typically at 4.54 and seldom below 3.26. Also given: how often the same scFv was detected with the empty control strains, with their mean in brackets.

{"CDR-H1": "GFTFDDYAMH", "CDR-H2": "GISWNSGSIMYADSKK", "CDR-H3": "VGRGGGYFDY", "log10 Kd, replicates": "n.d. / 5.29 / n.d.", "mean, log10 nM": "5.29", "signal with controls": "2 of 9 (4.30)"}
{"CDR-H1": "GFTFDDYAMH", "CDR-H2": "GIQWNSGSIIYADSVK", "CDR-H3": "PGRGGGYFDY", "log10 Kd, replicates": "4.48 / 6.18 / 5.31", "mean, log10 nM": "5.32", "signal with controls": "6 of 9 (4.76)"}
{"CDR-H1": "GFTFDDYASH", "CDR-H2": "GISWNSGSIGSADSVK", "CDR-H3": "VGRGGGYFAY", "log10 Kd, replicates": "4.22 / 4.65 / 4.73", "mean, log10 nM": "4.53", "signal with controls": "7 of 9 (5.11)"}
{"CDR-H1": "GFTFDDYGMH", "CDR-H2": "GISWNMGSIGYADSVK", "CDR-H3": "VGRGGGCFDY", "log10 Kd, replicates": "1.23 / 1.29 / 0.95", "mean, log10 nM": "1.16", "signal with controls": "5 of 9 (5.05)"}
{"CDR-H1": "GFTPDDYAMH", "CDR-H2": "GISWNSGSIGFADSVK", "CDR-H3": "VGRGGGYFDQ", "log10 Kd, replicates": "4.08 / n.d. / 5.09", "mean, log10 nM": "4.59", "signal with controls": "4 of 9 (4.93)"}
{"CDR-H1": "GFTFDDYAMH", "CDR-H2": "GGSWNSGSIGYADSVK", "CDR-H3": "VGREGGDFDY", "log10 Kd, replicates": "n.d. / 5.91 / n.d.", "mean, log10 nM": "5.91", "signal with controls": "5 of 9 (5.88)"}
{"CDR-H1": "GKTFDDPAMH", "CDR-H2": "GIAWNSGSIGYADSVK", "CDR-H3": "VGRGGGYFDY", "log10 Kd, replicates": "4.91 / n.d. / n.d.", "mean, log10 nM": "4.91", "signal with controls": "1 of 9 (4.43)"}
{"CDR-H1": "GFLFNDYAMH", "CDR-H2": "GISWNSGSIGYADHVK", "CDR-H3": "VGRGGGYFDY", "log10 Kd, replicates": "n.d. / n.d. / n.d.", "mean, log10 nM": "n.d.", "signal with controls": "0 of 9"}
{"CDR-H1": "GFTFDDYLMH", "CDR-H2": "GISWNSGVIGYADSVK", "CDR-H3": "VGRGGGIFDY", "log10 Kd, replicates": "n.d. / n.d. / n.d.", "mean, log10 nM": "n.d.", "signal with controls": "1 of 9 (2.23)"}
{"CDR-H1": "GFFYDDYAMH", "CDR-H2": "GISWNSGSIGYADSVK", "CDR-H3": "VGRGGGYFDF", "log10 Kd, replicates": "6.02 / 4.36 / 4.30", "mean, log10 nM": "4.89", "signal with controls": "3 of 9 (4.06)"}
{"CDR-H1": "GFTEDDYAMH", "CDR-H2": "GISWNSGSIGYADGVK", "CDR-H3": "VGQGGGYFDY", "log10 Kd, replicates": "n.d. / 4.75 / n.d.", "mean, log10 nM": "4.75", "signal with controls": "0 of 9"}
{"CDR-H1": "GFTFDDYAMF", "CDR-H2": "GISWNPDSIGYADSVK", "CDR-H3": "VGRGGGYFDY", "log10 Kd, replicates": "n.d. / n.d. / n.d.", "mean, log10 nM": "n.d.", "signal with controls": "0 of 9"}
{"CDR-H1": "GFTFDDYAGH", "CDR-H2": "GISWNSDSLGYADSVK", "CDR-H3": "VGRGGGYFDY", "log10 Kd, replicates": "1.61 / 1.78 / 0.68", "mean, log10 nM": "1.36", "signal with controls": "0 of 9"}
{"CDR-H1": "GFWFDDYVMH", "CDR-H2": "GISWNSGSIGYADSVK", "CDR-H3": "VGRGVGYFDY", "log10 Kd, replicates": "4.33 / n.d. / n.d.", "mean, log10 nM": "4.33", "signal with controls": "2 of 9 (4.02)"}
{"CDR-H1": "GFTIDDYLMH", "CDR-H2": "GISWNSGSIGYADSVQ", "CDR-H3": "VGRGGGYFDY", "log10 Kd, replicates": "4.92 / n.d. / n.d.", "mean, log10 nM": "4.92", "signal with controls": "5 of 9 (4.57)"}
{"CDR-H1": "GFTFDDYAMH", "CDR-H2": "GISINSGSIQYEDSVK", "CDR-H3": "VGRGGGYFDY", "log10 Kd, replicates": "n.d. / n.d. / n.d.", "mean, log10 nM": "n.d.", "signal with controls": "0 of 9"}
{"CDR-H1": "GFTFDDYAMH", "CDR-H2": "GISWNSGSISYADSVK", "CDR-H3": "VGTGGGYVDY", "log10 Kd, replicates": "n.d. / n.d. / n.d.", "mean, log10 nM": "n.d.", "signal with controls": "0 of 9"}
{"CDR-H1": "GFTFDDYAMH", "CDR-H2": "GISWNSGSIGYADSVK", "CDR-H3": "AGRGGGRFDY", "log10 Kd, replicates": "4.74 / n.d. / n.d.", "mean, log10 nM": "4.74", "signal with controls": "6 of 9 (4.45)"}
{"CDR-H1": "GFTFDDYWVH", "CDR-H2": "GISWNSGSIGYADSVK", "CDR-H3": "VYRGGGYFDY", "log10 Kd, replicates": "5.29 / 5.96 / n.d.", "mean, log10 nM": "5.62", "signal with controls": "4 of 9 (5.44)"}
{"CDR-H1": "GVTFDDYAMH", "CDR-H2": "GISWNSGSIGYADSVK", "CDR-H3": "VYRGGGAFDY", "log10 Kd, replicates": "4.45 / 6.72 / n.d.", "mean, log10 nM": "5.59", "signal with controls": "6 of 9 (4.72)"}
{"CDR-H1": "GFTFDDYAMH", "CDR-H2": "GISWNSGSIGYADSPK", "CDR-H3": "VGKGGGYFDY", "log10 Kd, replicates": "4.34 / 4.55 / 5.84", "mean, log10 nM": "4.91", "signal with controls": "7 of 9 (5.05)"}
{"CDR-H1": "GFTFDDYAMH", "CDR-H2": "GISWNSISIGYADSCK", "CDR-H3": "VGRGGGPFDY", "log10 Kd, replicates": "4.77 / n.d. / n.d.", "mean, log10 nM": "4.77", "signal with controls": "2 of 9 (3.63)"}
{"CDR-H1": "GFTFDDYAMH", "CDR-H2": "GISWNSGSIGYADSVK", "CDR-H3": "GGRGGGFFDH", "log10 Kd, replicates": "2.64 / 2.68 / 2.52", "mean, log10 nM": "2.61", "signal with controls": "2 of 9 (4.87)"}
{"CDR-H1": "GFTFDDYAMH", "CDR-H2": "GISYMSGSIGYADSVK", "CDR-H3": "VGRGGGYFDY", "log10 Kd, replicates": "2.83 / 3.03 / 3.96", "mean, log10 nM": "3.28", "signal with controls": "3 of 9 (4.81)"}

Again, the first 3 entries without any signal:

CDR-H1,CDR-H2,CDR-H3,"log10 Kd, replicates","mean, log10 nM",signal with controls
GFLFNDYAMH,GISWNSGSIGYADHVK,VGRGGGYFDY,n.d. / n.d. / n.d.,n.d.,0 of 9
GFTFDDYLMH,GISWNSGVIGYADSVK,VGRGGGIFDY,n.d. / n.d. / n.d.,n.d.,1 of 9 (2.23)
GFTFDDYAMF,GISWNPDSIGYADSVK,VGRGGGYFDY,n.d. / n.d. / n.d.,n.d.,0 of 9

Data: MIT Lincoln Laboratory AlphaSeq set, Engelhart et al. 2022, doi:10.1038/s41597-022-01779-4, as distributed in FLAb.